For experiment [1], the target named is recombinant rat GluN1/GluN2D (Rattus norvegicus, UniProt Q62645). In words: Two-electrode voltage-clamp (TEVC) recordings in Xenopus laevis oocytes, GluN1/GluN2D. Type of experiment: cell-based. A general note: Two-electrode voltage clamp holds a large cell at a set potential and records current.
In experiment [2] the target is recombinant rat GluN1/GluN2C (Rattus norvegicus, UniProt Q00961). In words: Two-electrode voltage-clamp (TEVC) recordings in Xenopus laevis oocytes, GluN1/GluN2C. It is filed as cell-based.

Sequences of proteins named here, by UniProt entry; tags and fusion partners are left off. Residues count along the entry.
UniProt Q62645, 28-1323 limits assumed: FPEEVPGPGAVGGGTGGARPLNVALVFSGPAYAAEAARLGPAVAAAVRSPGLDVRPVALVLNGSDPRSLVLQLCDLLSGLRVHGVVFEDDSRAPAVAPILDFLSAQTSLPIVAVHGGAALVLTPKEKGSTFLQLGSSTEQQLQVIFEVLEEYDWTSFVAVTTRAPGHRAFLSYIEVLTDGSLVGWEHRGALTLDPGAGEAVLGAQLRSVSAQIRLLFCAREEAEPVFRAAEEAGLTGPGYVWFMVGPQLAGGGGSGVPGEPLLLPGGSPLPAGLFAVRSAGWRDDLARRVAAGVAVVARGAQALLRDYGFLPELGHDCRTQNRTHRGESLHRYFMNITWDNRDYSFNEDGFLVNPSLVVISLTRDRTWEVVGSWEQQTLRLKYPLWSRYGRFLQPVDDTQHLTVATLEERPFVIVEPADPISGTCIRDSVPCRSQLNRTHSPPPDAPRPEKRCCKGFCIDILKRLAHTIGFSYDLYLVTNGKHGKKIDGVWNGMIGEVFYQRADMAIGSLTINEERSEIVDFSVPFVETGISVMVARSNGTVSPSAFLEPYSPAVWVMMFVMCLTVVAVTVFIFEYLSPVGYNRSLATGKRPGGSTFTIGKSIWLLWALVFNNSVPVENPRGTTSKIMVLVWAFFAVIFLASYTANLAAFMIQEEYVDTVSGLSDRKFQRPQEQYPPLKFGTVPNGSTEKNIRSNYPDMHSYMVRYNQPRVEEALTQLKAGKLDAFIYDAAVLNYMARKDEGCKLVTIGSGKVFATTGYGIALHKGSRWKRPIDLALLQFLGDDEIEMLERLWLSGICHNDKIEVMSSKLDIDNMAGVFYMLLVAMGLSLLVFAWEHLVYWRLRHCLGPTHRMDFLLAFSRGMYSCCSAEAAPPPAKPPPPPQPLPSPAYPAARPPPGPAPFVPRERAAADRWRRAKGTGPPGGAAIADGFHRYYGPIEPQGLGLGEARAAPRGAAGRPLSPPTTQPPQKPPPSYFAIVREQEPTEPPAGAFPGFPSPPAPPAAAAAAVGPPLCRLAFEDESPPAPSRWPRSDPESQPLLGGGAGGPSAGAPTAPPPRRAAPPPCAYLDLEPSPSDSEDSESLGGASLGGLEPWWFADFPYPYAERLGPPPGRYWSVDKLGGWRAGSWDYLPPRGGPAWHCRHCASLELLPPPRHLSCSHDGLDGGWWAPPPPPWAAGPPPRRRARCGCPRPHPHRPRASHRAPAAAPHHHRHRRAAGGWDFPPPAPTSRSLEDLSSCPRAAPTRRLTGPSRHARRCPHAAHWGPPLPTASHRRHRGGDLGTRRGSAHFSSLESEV
UniProt Q00961, 20-1237 limits assumed: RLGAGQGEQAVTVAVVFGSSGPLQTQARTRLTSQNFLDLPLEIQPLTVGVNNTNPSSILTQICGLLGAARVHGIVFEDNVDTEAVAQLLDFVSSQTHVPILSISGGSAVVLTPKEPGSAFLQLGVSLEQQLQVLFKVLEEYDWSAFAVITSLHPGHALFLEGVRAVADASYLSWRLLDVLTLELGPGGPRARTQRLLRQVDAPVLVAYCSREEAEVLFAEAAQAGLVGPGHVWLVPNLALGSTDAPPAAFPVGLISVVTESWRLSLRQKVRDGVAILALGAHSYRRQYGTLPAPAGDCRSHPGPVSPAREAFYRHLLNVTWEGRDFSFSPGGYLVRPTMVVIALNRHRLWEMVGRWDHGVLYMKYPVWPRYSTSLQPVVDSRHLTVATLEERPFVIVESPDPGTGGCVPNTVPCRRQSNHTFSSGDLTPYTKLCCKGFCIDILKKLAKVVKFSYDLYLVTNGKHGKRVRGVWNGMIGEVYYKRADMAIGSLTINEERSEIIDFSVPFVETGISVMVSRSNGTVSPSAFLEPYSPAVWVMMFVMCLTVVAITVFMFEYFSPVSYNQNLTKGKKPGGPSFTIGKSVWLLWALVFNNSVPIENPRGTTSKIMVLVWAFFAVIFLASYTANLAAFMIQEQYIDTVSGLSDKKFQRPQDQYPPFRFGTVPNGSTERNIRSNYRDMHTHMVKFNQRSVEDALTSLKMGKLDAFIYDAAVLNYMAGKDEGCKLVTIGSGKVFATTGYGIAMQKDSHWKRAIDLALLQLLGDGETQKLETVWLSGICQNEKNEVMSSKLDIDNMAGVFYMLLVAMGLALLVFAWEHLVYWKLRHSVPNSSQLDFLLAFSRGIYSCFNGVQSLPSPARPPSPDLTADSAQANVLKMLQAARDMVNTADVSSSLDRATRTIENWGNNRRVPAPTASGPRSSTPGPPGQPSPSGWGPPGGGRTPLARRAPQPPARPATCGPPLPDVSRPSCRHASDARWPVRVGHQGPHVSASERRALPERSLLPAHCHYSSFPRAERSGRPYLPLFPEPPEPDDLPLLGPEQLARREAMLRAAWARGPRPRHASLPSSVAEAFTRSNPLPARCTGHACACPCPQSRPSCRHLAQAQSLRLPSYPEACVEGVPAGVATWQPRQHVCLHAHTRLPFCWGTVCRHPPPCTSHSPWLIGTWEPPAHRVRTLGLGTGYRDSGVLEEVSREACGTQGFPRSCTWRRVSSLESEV

The text below walks through data of patent US10647679B2, “N-methyl-D-aspartate receptor (NMDAR) potentiators, pharmaceutical compositions, and uses related thereto” (Emory University, priority 2015, dated 2020).

A word on the EC50: it is the concentration giving half of the maximal effect.

Take `COc1ccc(OCC2c3ccc(OCCc4ccccc4)cc3CCN2C(=O)c2cccc(Cl)c2)cc1` (stereo not shown): in experiment [1], the “EC50 & Max Effect: 2D Max (%)” value amounted to 216%. The results for the EC50 in experiment [1] (read-out: EC50 & Max Effect: 2D) and in experiment [2] (read-out: EC50 & Max Effect: 2C) were 160 nM and 220 nM, respectively. In addition, in experiment [2], the “EC50 & Max Effect: 2C Max (%)” value is reported as 250%.
